Consider one sequence from patent publication US20140072613A1, “Compositions and Methods for Treating Cutaneous Scarring” (priority 2012, published 2014).

Protein sequences, listed by entry. Tags and fused reporters are not part of them. Lines headed by an entry give the natural chain unless they say otherwise; changes in a name come on top. Residues count along the entry.
UniProt O00418: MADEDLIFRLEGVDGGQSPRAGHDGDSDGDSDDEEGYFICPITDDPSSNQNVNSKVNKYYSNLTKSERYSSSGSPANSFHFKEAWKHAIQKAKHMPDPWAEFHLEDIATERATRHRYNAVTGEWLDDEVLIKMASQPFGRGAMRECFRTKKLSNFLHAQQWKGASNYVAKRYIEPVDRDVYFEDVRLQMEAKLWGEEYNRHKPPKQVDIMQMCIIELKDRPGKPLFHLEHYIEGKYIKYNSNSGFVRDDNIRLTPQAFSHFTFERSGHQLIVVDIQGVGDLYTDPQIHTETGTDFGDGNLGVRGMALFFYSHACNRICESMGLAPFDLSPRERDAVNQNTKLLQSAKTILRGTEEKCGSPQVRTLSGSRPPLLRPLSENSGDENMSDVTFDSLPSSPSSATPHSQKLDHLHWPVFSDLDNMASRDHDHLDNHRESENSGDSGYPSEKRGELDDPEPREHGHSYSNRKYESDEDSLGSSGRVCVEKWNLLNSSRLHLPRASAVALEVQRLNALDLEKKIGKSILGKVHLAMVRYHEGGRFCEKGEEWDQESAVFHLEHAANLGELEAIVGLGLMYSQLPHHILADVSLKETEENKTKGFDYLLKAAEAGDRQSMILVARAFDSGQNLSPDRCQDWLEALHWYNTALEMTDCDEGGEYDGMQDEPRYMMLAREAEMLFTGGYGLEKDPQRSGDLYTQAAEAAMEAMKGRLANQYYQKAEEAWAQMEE
UniProt O96017, whole entry: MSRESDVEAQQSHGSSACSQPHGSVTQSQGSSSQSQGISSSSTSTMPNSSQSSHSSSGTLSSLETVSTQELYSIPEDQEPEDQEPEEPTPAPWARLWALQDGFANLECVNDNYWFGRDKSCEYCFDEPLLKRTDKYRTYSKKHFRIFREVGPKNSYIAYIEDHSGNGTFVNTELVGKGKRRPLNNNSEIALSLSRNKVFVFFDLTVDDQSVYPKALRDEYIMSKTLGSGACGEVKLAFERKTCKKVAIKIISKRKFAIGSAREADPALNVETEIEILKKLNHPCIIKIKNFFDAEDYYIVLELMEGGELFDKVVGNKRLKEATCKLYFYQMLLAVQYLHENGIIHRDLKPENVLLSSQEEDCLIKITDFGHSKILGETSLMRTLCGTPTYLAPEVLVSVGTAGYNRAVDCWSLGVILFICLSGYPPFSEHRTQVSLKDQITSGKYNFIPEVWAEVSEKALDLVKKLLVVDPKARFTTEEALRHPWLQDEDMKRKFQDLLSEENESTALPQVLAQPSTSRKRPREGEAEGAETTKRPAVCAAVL
UniProt P35916, 25-1363: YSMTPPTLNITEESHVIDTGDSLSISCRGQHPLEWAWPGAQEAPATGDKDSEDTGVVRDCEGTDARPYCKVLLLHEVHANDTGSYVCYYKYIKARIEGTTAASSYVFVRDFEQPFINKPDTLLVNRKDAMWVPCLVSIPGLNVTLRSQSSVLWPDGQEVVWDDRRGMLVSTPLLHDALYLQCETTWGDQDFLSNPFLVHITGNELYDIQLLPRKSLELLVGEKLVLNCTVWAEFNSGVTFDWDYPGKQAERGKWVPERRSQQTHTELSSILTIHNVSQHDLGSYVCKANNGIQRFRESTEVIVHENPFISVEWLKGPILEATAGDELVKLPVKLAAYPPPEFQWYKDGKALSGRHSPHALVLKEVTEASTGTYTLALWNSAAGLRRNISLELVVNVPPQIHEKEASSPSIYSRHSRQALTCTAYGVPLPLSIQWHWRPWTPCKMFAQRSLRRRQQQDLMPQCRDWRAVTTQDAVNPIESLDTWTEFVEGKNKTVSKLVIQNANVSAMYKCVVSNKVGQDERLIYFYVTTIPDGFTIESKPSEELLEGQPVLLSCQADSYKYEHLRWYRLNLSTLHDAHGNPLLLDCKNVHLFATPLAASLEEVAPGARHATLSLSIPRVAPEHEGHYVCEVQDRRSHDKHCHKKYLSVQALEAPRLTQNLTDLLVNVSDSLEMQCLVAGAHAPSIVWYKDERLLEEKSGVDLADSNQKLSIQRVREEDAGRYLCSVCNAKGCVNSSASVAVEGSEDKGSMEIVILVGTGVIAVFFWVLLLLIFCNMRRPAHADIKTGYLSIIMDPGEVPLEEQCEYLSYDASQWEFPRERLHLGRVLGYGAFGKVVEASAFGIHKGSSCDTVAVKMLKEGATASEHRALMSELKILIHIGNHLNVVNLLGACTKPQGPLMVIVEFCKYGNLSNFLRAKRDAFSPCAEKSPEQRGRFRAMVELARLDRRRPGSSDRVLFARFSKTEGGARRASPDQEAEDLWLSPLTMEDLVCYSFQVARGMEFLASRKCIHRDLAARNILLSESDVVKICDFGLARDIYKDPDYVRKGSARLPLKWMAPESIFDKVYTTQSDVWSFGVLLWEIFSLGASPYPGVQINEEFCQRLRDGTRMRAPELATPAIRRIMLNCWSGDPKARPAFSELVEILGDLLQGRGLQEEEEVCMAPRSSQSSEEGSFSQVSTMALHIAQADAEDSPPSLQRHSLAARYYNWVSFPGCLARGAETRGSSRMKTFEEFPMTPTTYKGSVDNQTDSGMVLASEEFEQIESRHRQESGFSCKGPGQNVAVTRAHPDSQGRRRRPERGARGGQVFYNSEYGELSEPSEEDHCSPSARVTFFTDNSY
UniProt P53667: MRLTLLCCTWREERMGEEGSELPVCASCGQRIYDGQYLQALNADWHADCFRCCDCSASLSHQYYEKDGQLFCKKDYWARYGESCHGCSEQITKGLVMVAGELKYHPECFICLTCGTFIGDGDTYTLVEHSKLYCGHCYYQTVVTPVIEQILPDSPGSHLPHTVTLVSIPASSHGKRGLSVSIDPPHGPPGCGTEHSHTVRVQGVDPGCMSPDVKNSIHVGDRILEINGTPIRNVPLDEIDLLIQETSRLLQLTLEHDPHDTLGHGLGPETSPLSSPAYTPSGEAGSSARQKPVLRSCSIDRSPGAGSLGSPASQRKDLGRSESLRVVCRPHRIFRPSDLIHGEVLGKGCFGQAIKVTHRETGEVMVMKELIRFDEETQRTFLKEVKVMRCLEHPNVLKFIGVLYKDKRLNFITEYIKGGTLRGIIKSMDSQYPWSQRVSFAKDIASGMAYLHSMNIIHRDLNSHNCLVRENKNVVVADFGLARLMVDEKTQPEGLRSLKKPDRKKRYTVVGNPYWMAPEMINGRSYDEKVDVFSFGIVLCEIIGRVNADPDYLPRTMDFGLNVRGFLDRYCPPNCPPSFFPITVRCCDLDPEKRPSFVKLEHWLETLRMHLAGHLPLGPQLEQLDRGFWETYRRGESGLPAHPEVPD
UniProt P78368: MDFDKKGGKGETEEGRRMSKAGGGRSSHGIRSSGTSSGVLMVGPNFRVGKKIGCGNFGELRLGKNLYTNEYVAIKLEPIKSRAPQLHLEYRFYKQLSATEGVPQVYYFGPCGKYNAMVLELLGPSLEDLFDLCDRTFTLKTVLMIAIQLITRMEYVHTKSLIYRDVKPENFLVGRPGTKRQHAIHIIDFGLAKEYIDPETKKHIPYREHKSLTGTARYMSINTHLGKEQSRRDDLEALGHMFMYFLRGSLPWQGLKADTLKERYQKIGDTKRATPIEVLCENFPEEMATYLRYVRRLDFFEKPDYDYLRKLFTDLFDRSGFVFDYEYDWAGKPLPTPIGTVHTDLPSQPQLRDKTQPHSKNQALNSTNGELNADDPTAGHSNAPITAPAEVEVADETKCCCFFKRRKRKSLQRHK
UniProt Q06187, whole entry R28H: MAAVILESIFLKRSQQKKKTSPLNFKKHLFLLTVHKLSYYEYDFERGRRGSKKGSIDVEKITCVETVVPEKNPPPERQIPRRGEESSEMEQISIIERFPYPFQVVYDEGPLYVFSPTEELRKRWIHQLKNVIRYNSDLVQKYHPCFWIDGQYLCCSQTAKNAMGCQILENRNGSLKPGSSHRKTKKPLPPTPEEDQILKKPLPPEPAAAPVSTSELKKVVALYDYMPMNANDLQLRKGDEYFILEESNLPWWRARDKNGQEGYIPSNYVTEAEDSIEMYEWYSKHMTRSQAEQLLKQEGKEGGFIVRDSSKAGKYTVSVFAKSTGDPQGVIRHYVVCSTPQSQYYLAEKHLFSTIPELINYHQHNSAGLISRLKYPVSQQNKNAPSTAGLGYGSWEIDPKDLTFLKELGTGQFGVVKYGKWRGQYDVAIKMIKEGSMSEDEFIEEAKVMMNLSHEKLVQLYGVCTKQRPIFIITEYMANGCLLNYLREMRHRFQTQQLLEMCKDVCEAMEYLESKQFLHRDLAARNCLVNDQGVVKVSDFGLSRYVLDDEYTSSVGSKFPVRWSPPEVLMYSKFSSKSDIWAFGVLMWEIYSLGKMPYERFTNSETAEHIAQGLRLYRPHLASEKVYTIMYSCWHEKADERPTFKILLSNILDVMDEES
UniProt Q9H4B4: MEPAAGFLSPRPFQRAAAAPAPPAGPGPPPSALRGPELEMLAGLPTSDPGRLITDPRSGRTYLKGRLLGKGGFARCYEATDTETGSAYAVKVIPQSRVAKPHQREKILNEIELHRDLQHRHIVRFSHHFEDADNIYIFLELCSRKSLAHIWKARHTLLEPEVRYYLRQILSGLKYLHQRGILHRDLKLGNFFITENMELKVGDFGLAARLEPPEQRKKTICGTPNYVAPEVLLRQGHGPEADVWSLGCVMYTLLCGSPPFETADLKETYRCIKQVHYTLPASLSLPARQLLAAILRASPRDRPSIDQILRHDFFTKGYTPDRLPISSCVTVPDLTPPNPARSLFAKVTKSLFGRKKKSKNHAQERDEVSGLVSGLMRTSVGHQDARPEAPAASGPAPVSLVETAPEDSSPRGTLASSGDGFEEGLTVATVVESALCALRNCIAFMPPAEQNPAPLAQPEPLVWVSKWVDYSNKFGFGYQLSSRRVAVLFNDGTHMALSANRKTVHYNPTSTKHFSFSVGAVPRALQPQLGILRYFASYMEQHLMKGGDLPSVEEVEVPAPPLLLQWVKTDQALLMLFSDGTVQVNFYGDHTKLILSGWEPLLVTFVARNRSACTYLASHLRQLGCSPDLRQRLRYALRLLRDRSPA
UniProt Q9P0L2: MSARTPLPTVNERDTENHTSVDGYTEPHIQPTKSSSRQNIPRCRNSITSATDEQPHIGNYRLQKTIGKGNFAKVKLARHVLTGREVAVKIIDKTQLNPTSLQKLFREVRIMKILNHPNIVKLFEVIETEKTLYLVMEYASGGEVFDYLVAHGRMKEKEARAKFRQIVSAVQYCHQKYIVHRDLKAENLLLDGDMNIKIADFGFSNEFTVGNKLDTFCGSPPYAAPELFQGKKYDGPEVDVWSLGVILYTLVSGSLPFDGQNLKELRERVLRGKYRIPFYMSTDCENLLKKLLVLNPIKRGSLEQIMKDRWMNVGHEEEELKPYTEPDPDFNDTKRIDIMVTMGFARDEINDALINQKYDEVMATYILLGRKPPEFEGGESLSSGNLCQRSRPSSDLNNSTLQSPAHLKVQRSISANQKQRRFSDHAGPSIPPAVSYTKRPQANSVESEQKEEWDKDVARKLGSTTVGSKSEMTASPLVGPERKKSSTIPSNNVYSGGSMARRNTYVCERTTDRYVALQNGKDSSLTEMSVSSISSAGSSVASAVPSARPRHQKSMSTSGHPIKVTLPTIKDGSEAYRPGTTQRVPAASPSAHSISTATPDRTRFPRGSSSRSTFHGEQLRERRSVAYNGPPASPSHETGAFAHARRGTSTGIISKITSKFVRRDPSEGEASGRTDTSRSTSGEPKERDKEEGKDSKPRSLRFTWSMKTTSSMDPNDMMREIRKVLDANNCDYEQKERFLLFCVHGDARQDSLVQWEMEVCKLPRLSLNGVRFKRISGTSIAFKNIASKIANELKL
UniProt Q9Y243: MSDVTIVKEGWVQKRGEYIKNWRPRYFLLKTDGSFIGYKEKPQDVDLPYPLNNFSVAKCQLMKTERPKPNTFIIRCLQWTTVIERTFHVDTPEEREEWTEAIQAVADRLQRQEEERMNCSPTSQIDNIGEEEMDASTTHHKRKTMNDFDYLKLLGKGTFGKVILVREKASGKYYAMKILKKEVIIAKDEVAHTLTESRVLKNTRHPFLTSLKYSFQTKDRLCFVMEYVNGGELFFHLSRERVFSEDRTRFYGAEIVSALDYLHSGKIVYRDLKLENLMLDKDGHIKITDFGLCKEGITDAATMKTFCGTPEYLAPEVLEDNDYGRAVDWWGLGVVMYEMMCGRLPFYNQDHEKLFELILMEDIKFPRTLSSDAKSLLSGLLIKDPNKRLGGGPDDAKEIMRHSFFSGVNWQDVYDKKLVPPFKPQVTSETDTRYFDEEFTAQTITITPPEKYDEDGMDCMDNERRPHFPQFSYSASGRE

What all share (format): biochemical
For test [1], the target named is 266 human kinases (Homo sapiens, UniProt O00418). As to conditions: eEF-2K(h); 100 μM. In outline: (§1)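 Kinase phosphorylates cationic substrate with radiolabelled ATP phosphate; substrate retained on anionic filter membrane; scintillation count; % of 100% activity control.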
The target of test [2] is 266 human kinases (Homo sapiens, UniProt O96017). The note with it: CHK2(h); 100 μM. In outline: as §1
Test [3] addresses 266 human kinases (Homo sapiens, UniProt P00519, Q252H). The note with it: Abl(Q252H)(h); 100 μM. The method in brief: as §1
The target of test [4] is 266 human kinases (Homo sapiens, UniProt P16234, D842V). As to conditions: PDGFRα(D842V)(h); 100 μM. The method in brief:
as §1

Test [5] concerns the target 266 human kinases (Homo sapiens, UniProt P35916). The note with it: Flt4(h); 100 μM. The method in brief:
as §1

In test [6] the target is 266 human kinases (Homo sapiens, UniProt P53667). As to conditions: LIMK1(h); 100 μM. The method in brief: as §1
In test [7] the target is 266 human kinases (Homo sapiens, UniProt P78368). As to conditions: CK1γ2(h); 100 μM. The method in brief:
as §1

Test [8] deals with 266 human kinases (Homo sapiens, UniProt Q06187, R28H). As to conditions: BTK(R28H)(h); 100 μM. In outline: as §1
The target of test [9] is T1, 266 human kinases (Homo sapiens, UniProt Q7L7X3).
T1 sequence (Q7L7X3 1-1001): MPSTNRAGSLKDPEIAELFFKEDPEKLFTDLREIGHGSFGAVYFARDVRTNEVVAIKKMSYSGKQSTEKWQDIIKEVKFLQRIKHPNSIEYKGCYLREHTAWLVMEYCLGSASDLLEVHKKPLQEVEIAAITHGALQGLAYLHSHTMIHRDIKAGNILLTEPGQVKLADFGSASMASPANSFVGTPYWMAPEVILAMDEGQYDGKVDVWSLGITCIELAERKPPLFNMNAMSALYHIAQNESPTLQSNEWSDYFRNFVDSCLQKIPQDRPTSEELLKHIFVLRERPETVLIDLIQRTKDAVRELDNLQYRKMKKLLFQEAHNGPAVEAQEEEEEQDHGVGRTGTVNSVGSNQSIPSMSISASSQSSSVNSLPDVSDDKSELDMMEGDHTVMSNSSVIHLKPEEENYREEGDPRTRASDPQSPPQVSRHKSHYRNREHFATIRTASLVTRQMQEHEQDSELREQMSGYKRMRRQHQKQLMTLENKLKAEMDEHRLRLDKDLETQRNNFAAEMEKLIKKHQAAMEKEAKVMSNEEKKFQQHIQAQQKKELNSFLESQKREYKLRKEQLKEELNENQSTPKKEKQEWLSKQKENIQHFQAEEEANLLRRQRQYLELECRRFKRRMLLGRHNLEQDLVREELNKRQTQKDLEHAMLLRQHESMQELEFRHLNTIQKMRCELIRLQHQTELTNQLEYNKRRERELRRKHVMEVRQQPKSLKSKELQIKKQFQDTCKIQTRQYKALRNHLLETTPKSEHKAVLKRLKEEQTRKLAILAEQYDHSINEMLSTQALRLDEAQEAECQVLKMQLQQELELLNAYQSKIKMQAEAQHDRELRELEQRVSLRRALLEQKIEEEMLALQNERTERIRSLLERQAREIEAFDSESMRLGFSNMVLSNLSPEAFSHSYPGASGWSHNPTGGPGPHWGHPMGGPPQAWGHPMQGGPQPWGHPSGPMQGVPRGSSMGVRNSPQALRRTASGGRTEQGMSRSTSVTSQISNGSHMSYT
As to conditions: TAO1(h); 100 μM. In outline:
as §1

The target in test [10] is 266 human kinases (Homo sapiens, UniProt Q8N4C8). As to conditions: MINK(h); 100 μM. In outline: as §1
Test [11] addresses 266 human kinases (Homo sapiens, UniProt Q9H4B4). The note with it: Plk3(h); 100 μM. In outline: as §1
Test [12] concerns the target 266 human kinases (Homo sapiens, UniProt Q9P0L2). As to conditions: MARK1(h); 100 μM. The method in brief:
as §1

Test [13] addresses 266 human kinases (Homo sapiens, UniProt Q9Y243). As to conditions: PKBγ(h); 100 μM. The method in brief:
as §1

The target of test [14] is 266 human kinases (Homo sapiens, UniProt Q9Y5S2). As to conditions: MRCKβ(h); 100 μM. In outline: as §1
In test [15] the test system is 266 human kinases. The note with it: JNK1α1(h); 100 μM. In outline:
as §1

Regarding “YARAAARQARAKALNRQLGVA (mammal) [MMI-0200]”, the “% activity” value in the test with 266 human kinases [1] came to 136%; with 266 human kinases [2] it was 105%; in the test with 266 human kinases [3] it was 107%; with 266 human kinases [4], 107%; with 266 human kinases [5], 105%; with 266 human kinases [6] it was 109%. The “% activity” value is recorded as 104% with 266 human kinases [7]; 104% in the test with 266 human kinases [8]; 105% in the test with 266 human kinases [9]; 103% with 266 human kinases [10]; 107% with 266 human kinases [11]; 102% in the test with 266 human kinases [12]. The “% activity” value in the test with 266 human kinases [13] was 103%; in the test with 266 human kinases [14], 102%; in the test on 266 human kinases [15] it was 106%.
